Assay results from US6150126A, “Daphnia reproductive bioassay for testing toxicity of aqueous samples and presence of an endocrine disrupter” (Wisconsin Alumni Research Foundation, priority 1998, dated 2000).

Assays:
[1] = tested on: Daphnia galeata mendotae (CDF-1 clone); settings: in vivo
Daphnia [2] = settings: in vivo; cited from earlier work
Daphnia carinata = settings: long-term exposure; cited from earlier work
[3] = tested on: Daphnia galeata-mendotae (clone CDF-1)
Daphnia [4] = settings: low levels; cited from earlier work

Which Male production [1] does the source give for `ClC1=C(Cl)[C@]2(Cl)[C@@H]3[C@@H]4C[C@@H]([C@H]5O[C@@H]45)[C@@H]3[C@@]1(Cl)C2(Cl)Cl` [Dieldrin, dieldrin] here?
The Male production was “reduced male production”.

Which “Relative allocation of available resources for reproduction” value (Daphnia [2]) does the source give for `O=S1OCC2C(CO1)C1(Cl)C(Cl)=C(Cl)C2(Cl)C1(Cl)Cl` (stereo not shown) [Endosulfan, endosulfan] here?
Its value is “did not induce changes”.

And the “Concentration delaying time of first reproduction” value (Daphnia carinata)?
Its value is 440 ppb.

For nonylphenol, which Reproduction ([3]; all treatments, 30 days) is on record?
Its Reproduction is “reduced reproduction”.

What about the Production of ephippia ([3]; high doses) of the same compound?
Its Production of ephippia is “decreased slightly”.

And the “Reductions in r and in ephippia production, cause” value ([3]; in vivo)?
Its value is “largely a result of increased adult mortality”.

And the Resting egg production (Daphnia [4])?
The Resting egg production was “reduce resting egg production”.
